In this assay the target is T1, purified recombinant human PDE9 (Homo sapiens, UniProt O76083).
T1 construct: FLAG; made in house; host or cells: baculovirus/Sf9
The assay is described as follows: PDE9 enzyme inhibition scintillation proximity assay ([3H]cGMP hydrolysis). The class given is biochemical. To be noted: read-out: inhibition against PDE9 at a concentration of 1 μM. The method, then:
The ability of the compounds of the invention to inhibit the PDE9 enzyme was determined using the following in vitro assay. The assay used purified recombinant human PDE9.
The assay uses [3H]cGMP which is hydrolysed by the PDE9 enzyme to the 5′-nucleotide [3H]GMP. The [3H]GMP binds to yttrium silicate scintillation proximity assay (SPA) beads, and detected by scintillation counting. Inhibition of activity is determined relative to the activity of uninhibited controls.
Phosphodiesterase Scintillation Proximity Assay (SPA) beads (Yttrium Silicate) were obtained from Amersham Biotech.
[^3H]Guanosine 3′,5′-Cyclic Phosphate ([^3H]-cGMP), Ammonium Salt was obtained from Amersham Biotech.
Buffer A was prepared containing Tris.HCl (20 mM), MgCl2.6H2O (5 mM) in water.
Buffer B was prepared containing Bovine Serum Albumin (2 mg/ml) (BSA) in Buffer A. It was prepared fresh and filter sterilised.
PDE9 enzyme solution was prepared in Buffer B (dilution factor determined such that no more than 30% breakdown of substrate occurred, but typically 1:35,000). […]
The plates were then analysed using a scintillation counter (such as the NXT TopCount)TM.
For each compound the percentage inhibition was calculated by the following equation: […]
IC50 values were determined from sigmoid dose response curves of enzyme activity vs. compound concentration.
(In general: In a scintillation proximity assay essentially only radioactivity close to the scintillant gives light.)

Chains of the proteins cited; added tags and fusions are not shown. Lines headed by an entry give the natural chain unless they say otherwise; changes in a name come on top.
UniProt O76083: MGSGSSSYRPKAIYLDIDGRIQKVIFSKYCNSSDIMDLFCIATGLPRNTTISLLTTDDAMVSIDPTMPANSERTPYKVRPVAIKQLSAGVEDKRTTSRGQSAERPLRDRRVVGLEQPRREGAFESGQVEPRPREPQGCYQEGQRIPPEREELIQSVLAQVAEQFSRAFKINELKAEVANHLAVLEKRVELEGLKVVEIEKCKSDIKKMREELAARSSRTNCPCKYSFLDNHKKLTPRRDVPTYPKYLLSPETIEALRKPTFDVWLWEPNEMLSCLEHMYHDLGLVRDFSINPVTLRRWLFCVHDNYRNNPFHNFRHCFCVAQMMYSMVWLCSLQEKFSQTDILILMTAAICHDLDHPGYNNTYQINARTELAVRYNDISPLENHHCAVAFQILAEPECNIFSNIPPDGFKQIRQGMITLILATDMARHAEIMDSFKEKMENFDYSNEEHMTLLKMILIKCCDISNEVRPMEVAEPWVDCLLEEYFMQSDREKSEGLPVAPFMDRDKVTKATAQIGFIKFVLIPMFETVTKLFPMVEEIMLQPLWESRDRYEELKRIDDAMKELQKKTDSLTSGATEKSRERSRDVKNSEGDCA

This is an account of results in patent US20030195205A1, “PDE9 inhibitors for treating cardiovascular disorders” (Pfizer Inc., priority 2001, published 2003).

Turning to `CC(C)c1n[nH]c2c(=O)[nH]c(Cc3cccc(Cl)c3)nc12` [Compound 1, 5-(3-chlorobenzyl)-3-isopropyl-1,6-dihydro-pyrazolo[4,3-d]pyrimidin-7-one], the inhibition at 1 µM is more than 40%.
